This passage reports Ki results from patent publication US8748608B2, “4-phenylpiperazine derivatives with functionalized linkers as dopamine D3 receptor selective ligands and methods of use” (The United States of America as Represented by the …, priority 2007, dated 2014).

The chains behind the UniProt entries cited, without tags or fusion partners.
UniProt P35462, whole entry: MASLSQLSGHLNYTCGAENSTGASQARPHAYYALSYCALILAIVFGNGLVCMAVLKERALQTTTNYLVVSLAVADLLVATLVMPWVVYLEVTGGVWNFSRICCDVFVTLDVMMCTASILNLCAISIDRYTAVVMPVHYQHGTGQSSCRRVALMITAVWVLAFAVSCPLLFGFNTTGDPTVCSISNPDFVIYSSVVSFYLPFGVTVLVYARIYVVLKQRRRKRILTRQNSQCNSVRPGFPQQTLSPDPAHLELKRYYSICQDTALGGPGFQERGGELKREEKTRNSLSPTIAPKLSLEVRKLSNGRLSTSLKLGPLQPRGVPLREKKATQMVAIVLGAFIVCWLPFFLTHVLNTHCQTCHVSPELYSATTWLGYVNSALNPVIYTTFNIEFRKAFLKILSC

For this test, the target named is human dopamine D3 receptor (Homo sapiens (Human), UniProt P35462). Put plainly: Human D2-like receptor competition binding in HEK cells, D3.

Molecules are shown by their SMILES. Like-named read-outs stand apart in the source and are kept apart here.

As to `COc1ccccc1N1CCN(C/C=C/CNC(=O)c2ccc3c(c2)Cc2ccccc2-3)CC1` [Compound 15, N-(4-(4-(2-methoxyphenyl)piperazin-1-yl)-trans-but-2-enyl)-9H-fluorene-2-carboxamide], the Ki was 12 nM (HEK cells, hD3, read-out: D3 Ki) and 1.2 ± 0.1 nM (Table 3, unit inferred, with spread, read-out: D3 binding affinity).
